The nature of this data set: Solubility trials: saturation concentration of the oxazaphosphorine in water / aqueous urea solution. As to conditions: saturated Cyclophosphamid solution.

The record followed here is patent publication EP1023075B1, “LIQUID PRESENTATIONS OF OXAZAPHOSPHORINE-CONTAINING PHARMACEUTICAL PRODUCTS” (STADA ARZNEIMITTEL AG, priority 1997, dated 1999).

As to `O=P1(N(CCCl)CCCl)NCCCO1` (stereo not shown) [Cyclophosphamid], the pH-Wert is, setting by setting: (Harnstoff-Startkonzentration 0 % (G/V)) 3,2; (Harnstoff-Startkonzentration 10 % (G/V)) 3,5; (Harnstoff-Startkonzentration 20 % (G/V)) 3,9; (Harnstoff-Startkonzentration 30 % (G/V)) 4,2; (Harnstoff-Startkonzentration 40 % (G/V)) 4,3; (Harnstoff-Startkonzentration 45 % (G/V)) 4,7. In addition, the pH-Wert (Harnstoff-Startkonzentration 50 % (G/V)) is listed as 4,8.
